Values of other authors, collected in patent US9241952B2, “Method of treating type II diabetes, hyperglycemia or hypoglycemia by administering a synergistic combination of a sulphonylurea and inulin” (OZSTAR THERAPEUTICS PTY LTD, priority 2010, dated 2016).

Conditions: insulin-treated patients; cited from earlier work

For insulin, the weight gain is listed as roughly 3.5 kg.
